Our source for the IC50 values is patent US6686343B1, “Triazolopurine derivatives, pharmaceutical compositions containing the derivatives, and adenosine A3 receptor affinitive agents” (Otsuka Pharmaceutical Factory, Inc., priority 1999, dated 2004).

This assay has as its target adenosine A2 receptor (UniProt P30543). The assay can be described thus: Adenosine A2 receptor binding capacity. As to conditions: read-out: Receptor binding capacity (IC50) Adenosine A2. The protocol:
The adenosine A2 receptor binding capacity of the test compound was measured according to the method described in Archives of Pharmacology, 336, 204 (1987) and The Journal of Pharmacology and Experimental Therapeutics, 251 (3), 888 (1989) and then evaluated as IC50.

Each structure is given as a SMILES string.

For `O=C(O)CCc1nc2nc[nH]c2c2nc(-c3ccc(-c4ccccc4)cc3)nn12` [Example 32, 8-(4-biphenylyl)-5-(2-carboxyethyl)-1H-1,2,4-triazolo[5,1-i]purine], the IC50 is not below 10 µM.
